In article PMC5929103:

Target: yeast-displayed APPI_(M17G/I18F/F34V) (human)
Test: flow cytometry on cells

active human kallikrein-6, labelled with DyLight 650 (from UniProt Q92876 22-244) (enzyme)
Kd: 55 nM
